Sequences of proteins named here, by UniProt entry; tags and fusion partners are left off. Residues count along the entry.
UniProt P11597, 18-493 limits assumed: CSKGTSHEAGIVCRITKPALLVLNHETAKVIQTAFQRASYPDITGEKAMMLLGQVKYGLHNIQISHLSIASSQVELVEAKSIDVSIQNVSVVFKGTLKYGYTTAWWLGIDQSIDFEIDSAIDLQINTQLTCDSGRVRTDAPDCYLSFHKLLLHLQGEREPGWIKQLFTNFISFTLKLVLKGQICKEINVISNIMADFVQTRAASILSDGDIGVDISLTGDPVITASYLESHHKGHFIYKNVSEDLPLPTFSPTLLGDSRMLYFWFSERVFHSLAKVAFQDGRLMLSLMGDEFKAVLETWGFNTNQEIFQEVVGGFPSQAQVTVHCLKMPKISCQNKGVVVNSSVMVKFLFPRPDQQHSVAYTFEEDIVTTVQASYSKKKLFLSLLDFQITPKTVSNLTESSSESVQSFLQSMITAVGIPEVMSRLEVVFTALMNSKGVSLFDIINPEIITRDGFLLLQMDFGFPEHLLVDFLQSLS

In US6794396B2, “Substituted pyridines useful for inhibiting cholesteryl ester transfer protein activity” (Pharmacia Corporation, priority 1998, dated 2004):

biological target: CETP (Homo sapiens, UniProt P11597); experiment: CETP activity in vitro: transfer of [3H]CE from HDL donor to LDL acceptor particles; type: biochemical; conditions: read-out: IC50(μm); 50% inhibition of [3H]CE transfer from HDL to LDL, 2 hours at 37° C.

Row | SMILES | IC50
1 | COC(=O)c1c(C(F)F)nc(C(F)(F)F)c(-c2cc(C)sn2)c1CC(C)C | 50 µM
2 | COC(=O)c1c(C(F)F)nc(C(F)(F)F)c(C(=O)c2cnc(Cl)s2)c1CC(C)C | 80 µM
3 | COC(=O)c1c(C(F)(F)F)nc(C(F)F)c(C(=O)NCc2ccc(Cl)cc2)c1CC(C)C | 70 µM
4 | CCc1c(C(=O)OC(C)C)c(C(F)(F)F)nc(C(F)(F)F)c1C(=O)OC(C)C | 90 µM
5 | COC(=O)c1c(C(F)F)nc(C(F)(F)F)c(N=C2CSCCS2)c1CC(C)C | 10 µM
6 | CCOC(=O)c1c(C(F)(F)F)nc(C(F)F)c(C(=O)OC)c1SC1=NCCS1 | 6 µM
7 | CCOC(=O)c1c(C(F)(F)F)nc(C(F)(F)F)c(C)c1OC(=O)c1ccc(C(F)(F)F)cc1 | 25 µM
8 | COC(=O)c1c(C(F)F)nc(C(F)(F)F)c(N=C2SCCC2C)c1CC(C)C (centres unmarked) | 50 µM
9 | COC(=O)c1c(C(F)F)nc(C(F)(F)F)c(C(OC)c2cccs2)c1CC(C)C (centres unmarked) | 50 µM
10 | CCOC(=O)c1c(C(F)F)nc(C(F)(F)F)c(C2=NO[C@H](Cl)[C@H]2Cl)c1CC(C)C (relative stereo) | 30 µM
11 | COC(=O)c1c(C(F)F)nc(C(F)(F)F)c(C(C#N)=C2OCCO2)c1CC1CC1 | 50 µM
